In patent US20160183564A1 (priority 2013, published 2016):
Like-named read-outs stand apart in the source and are kept apart here.

Tested on: VFA production
Conditions: average of three experiments

SMILES	Effect on VFA production (% compared to control) (dose 75 μM)	Effect on VFA production (% compared to control) (dose 0.625 μM)
O=[N+]([O-])c1ccc(NCCO)cc1 [2-(4-Nitro-phenylamino)-ethanol]	−4%	–
O=[N+]([O-])OCCCO [3-nitrooxy propanol, 3-Nitrooxypropanol]	–	−2%
CCCNc1ccc([N+](=O)[O-])cc1 [(4-Nitro-phenyl)-propyl-amine]	−2%	–
